The target in the assay is WT HIV-1 RT (Human immunodeficiency virus type 1 group M subtype B, UniProt P03366). The experiment in a line: Inhibition of WT HIV-1 RT polymerase activity.

For `Cc1cc(C#N)cc(C)c1Oc1nc(Nc2ccc(C#N)cc2)nc(N)c1Br` [ETR, etravirine, reference compound], inhibition was half-maximal at 30 ± 4.6 nM (IC50).

Values taken from article PMC12399242 (Acta Pharmaceutica Sinica. B, 2025).
